The numbers were not newly measured in patent US12685756B2, “Methods of treating disease with Terlipressin” (BIOVIE INC., priority 2022, dated 2026), which cites them from elsewhere.

The data set has as its target vasopressin type 2 receptors (Homo sapiens, UniProt P30518). The conditions noted are these: relative to AVP; cited from earlier work.

On to 8-lysine vasopressin [8-LVP], for which the “binding affinity for vasopressin type 2 receptors, fold less than AVP” value is reported as “approximately 12 fold”.
